Results on one molecule are retold here after paper PMC3563628, “Prevalence, Specificity and Determinants of Lipid-Interacting PDZ Domains from an In-Cell Screen and In Vitro Binding Experiments” (PLoS ONE, 2013).

This assay has as its system eYFP-S1PDZ1-CASK in MCF-7 cells. The assay is described as follows: Pharmacological treatment, plasma membrane localization of eYFP-S1PDZ1-CASK. Type of assay: cell-based. To be noted: ionomycin 10 µM, PAO 100 µM, wortmannin 500 nM.

For `O=[As]c1ccccc1` (stereo not shown), the “plasma membrane localization of eYFP-S1PDZ1-CASK upon treatment” value is “released”.
